Measured values as given in publication PMC12509328, “Human Internal Exposures of Bisphenol A and Six Data-Poor Analogs Predicted by Physiologically Based Kinetic Models with Multimodal Parametrization” (Environmental Science & Technology, 2025).

Experiment: Present human PBK model, model evaluation (scenarios 3 and 4)
Settings: present model vs Oh et al. (BPS dosing)
From the text: Diet is the main route of human exposure to bisphenols; therefore, models were designed herein for oral administration. Several exposure scenarios were defined for parameter gathering, model evaluation, and internal exposure assessment (Table ). In scenarios 1 and 2, a rat PBK model was used to parametrize enterohepatic circulation (EHC) rates for application in human PBK models. […] Models were developed for four human physiologies: male (“man”) and female adults (“woman”), male “child”, and male “toddler” (Table S2). These models were selected based on available physiological data for key organs (thyroid, breasts, and testes), related to ED and the detected bisphenol exposure level. The repeated dose scheme from Karrer et al. was reproduced (scenarios 9 to 12) to model chronic exposure via three meals a day.
A common model structure was employed for the seven bisphenols (Figure ). When not individually compartmentalized, organs were categorized as either slowly perfused tissues or rapidly perfused tissues and combined. […]
To address parameter uncertainty in concentrations that were predicted with human PBK models, 10,000 Monte Carlo (MC) simulations were performed. […] MC simulation outcomes were analyzed by comparing the first quartile, the median, and the third quartile values of concentrations per time point.

For `O=S(=O)(c1ccc(O)cc1)c1ccc(O)cc1` [BPS, Bisphenol S], the “mean predicted AUC, times higher than in vivo” value was 4 times.
